System: A431 cells
Assay: Effect of Gefitinib, Elrotinib on proliferation of A431 cells stimulated with human HB-EGF
Type: cell-based
Conditions: low adhesion plate
Method: Each plate was cultured by being stood still in a CO2 incubator (37° C., 5% CO2). […] To the culture medium on days 4, 6 and 8 was added an ATP reagent (150 μL) (CellTiter-Glo (registered trade mark) Luminescent Cell Viability Assay, manufactured by Promega) to give a suspension, which was stood for about 10 min at room temperature, and the luminescence intensity (RLU value) was measured by FlexStation3 (manufactured by Molecular Devices), and the number of viable cells was measured by subtracting the luminescence value of the medium alone.

COc1cc2ncnc(Nc3ccc(F)c(Cl)c3)c2cc1OCCCN1CCOCC1 [Gefitinib]
% Control value of the RLU value (ATP measurement, luminescence intensity) (drug 0.1 μM, day 4, 0.015% (w/v) deacylated gellan gum medium): 83% | % Control value of the RLU value (ATP measurement, luminescence intensity) (drug 0.1 μM, day 8, 0.015% (w/v) deacylated gellan gum medium): 68% | % Control value of the RLU value (ATP measurement, luminescence intensity) (drug 0.3 μM, day 4, 0.015% (w/v) deacylated gellan gum medium): 82% | % Control value of the RLU value (ATP measurement, luminescence intensity) (drug 0.3 μM, day 8, 0.015% (w/v) deacylated gellan gum medium): 45% | % Control value of the RLU value (ATP measurement, luminescence intensity) (drug 1 μM, day 4, 0.015% (w/v) deacylated gellan gum medium): 10% | % Control value of the RLU value (ATP measurement, luminescence intensity) (drug 1 μM, day 8, 0.015% (w/v) deacylated gellan gum medium): 2% | % Control value of the RLU value (ATP measurement, luminescence intensity) (drug 3 μM, day 4, 0.015% (w/v) deacylated gellan gum medium): 3% | % Control value of the RLU value (ATP measurement, luminescence intensity) (drug 3 μM, day 8, 0.015% (w/v) deacylated gellan gum medium): 0%

From patent US11371013B2, “Culture medium composition and method of culturing cell or tissue using thereof” (Nissan Chemical Industries, Ltd., priority 2012, dated 2022)
